Results taken from PubChem BioAssay AID461 (SRMLSC, 2006).
The list shows a part of the results, in another mix than the full data. Active and inactive are the calls of the source.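 How the source made its calls: active means Her2 level under about 52% in both replicate screens, with viability over 70% of control (limit read from the data); inconclusive means Her2 under the limit in one screen only, or viability under 70%; inactive means Her2 level above the set limit.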

Protein sequences, listed by entry. Tags and fused reporters are not part of them.
UniProt P04626, whole entry: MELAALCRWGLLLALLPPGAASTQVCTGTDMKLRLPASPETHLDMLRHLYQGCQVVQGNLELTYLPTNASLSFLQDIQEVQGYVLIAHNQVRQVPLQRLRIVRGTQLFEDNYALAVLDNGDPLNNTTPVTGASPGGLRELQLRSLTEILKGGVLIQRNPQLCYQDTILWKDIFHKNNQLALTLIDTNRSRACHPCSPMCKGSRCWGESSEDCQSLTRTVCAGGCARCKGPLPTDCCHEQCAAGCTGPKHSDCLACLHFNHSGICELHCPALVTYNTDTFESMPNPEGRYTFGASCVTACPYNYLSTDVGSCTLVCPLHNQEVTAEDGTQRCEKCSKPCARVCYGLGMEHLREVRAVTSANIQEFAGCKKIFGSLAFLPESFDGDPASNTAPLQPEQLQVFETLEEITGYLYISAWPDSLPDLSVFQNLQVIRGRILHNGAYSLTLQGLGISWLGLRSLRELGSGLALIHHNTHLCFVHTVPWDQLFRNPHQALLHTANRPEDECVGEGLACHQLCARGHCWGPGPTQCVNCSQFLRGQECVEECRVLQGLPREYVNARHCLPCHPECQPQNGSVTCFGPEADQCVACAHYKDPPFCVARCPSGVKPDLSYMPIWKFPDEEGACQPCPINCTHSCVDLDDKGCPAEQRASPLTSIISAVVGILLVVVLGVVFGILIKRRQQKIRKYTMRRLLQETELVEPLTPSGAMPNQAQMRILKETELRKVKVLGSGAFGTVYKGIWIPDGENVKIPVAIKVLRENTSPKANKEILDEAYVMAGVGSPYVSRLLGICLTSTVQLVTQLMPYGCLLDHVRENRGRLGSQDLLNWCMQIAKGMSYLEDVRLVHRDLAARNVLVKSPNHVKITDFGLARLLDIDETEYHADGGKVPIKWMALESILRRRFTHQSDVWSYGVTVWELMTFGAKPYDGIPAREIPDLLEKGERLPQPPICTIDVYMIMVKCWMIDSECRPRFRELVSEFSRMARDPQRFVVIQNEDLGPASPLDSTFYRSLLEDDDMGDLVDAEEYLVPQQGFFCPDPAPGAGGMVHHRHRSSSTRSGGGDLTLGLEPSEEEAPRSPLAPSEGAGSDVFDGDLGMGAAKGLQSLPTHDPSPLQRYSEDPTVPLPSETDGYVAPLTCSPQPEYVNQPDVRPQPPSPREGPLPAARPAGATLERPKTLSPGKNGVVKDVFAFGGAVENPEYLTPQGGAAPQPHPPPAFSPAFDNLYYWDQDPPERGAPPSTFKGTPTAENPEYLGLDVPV

These compounds were tested against Receptor tyrosine-protein kinase erbB-2 (Homo sapiens) (UniProt P04626) (assay: Her2 expression decrease, cell viability multiplex – SKBR3 breast tumor cells, AlphaScreen, ATP viability, primary screen (AID 461)). Conditions: 18-24 h, at 10 µM, stronger effect = lower value.
`CP(=O)(Nc1ccccn1)Oc1ccccc1` (stereo not given) was tested, and the Her2 level was inactive: 104%.
In the case of `CP(=O)(Nc1ccc2c(c1)OCCO2)Oc1ccccc1` (stereo not given), the Her2 level is reported as inactive: 120%.
For `CN(C)CCOC(=O)C(O)(c1ccccc1)C1CCCCC1` (stereo not given), the Her2 level was inactive: 104%.
With `Cc1ccc(C)c(NP(C)(=O)Oc2ccccc2)c1` (stereo not given) the Her2 level was inactive: 103%.
`CP(=S)(Nn1cnnc1)Oc1ccccc1` (stereo not given) was tested, and the Her2 level was inactive: 121%.
